Membrane potential signal change and outcome data for five molecules are collected here from PubChem BioAssay AID2780 (Johns Hopkins Ion Channel Center, 2010).

The structures appear in SMILES notation. This is a selection; strong and weak results do not stand in their true shares. Calls of active or inactive are those of the source.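 How the source made its calls: active means membrane potential signal shifting up or down by more than 3 SD of buffer-only wells, on both duplicate plates; inactive means the rest.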

The experiment can be described thus: membrane potential modulation in parental HEK293, confirmation, counter-screen for TRPC6 inhibitor project, cell-based (AID 2780).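 On Membrane potential signal change: plate controls were buffer EC0 wells for no effect and acetylcholine ECmax wells for full effect.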 Particulars: parental HEK293 membrane potential dye fluorescence; at 10 µM. On the technique in general: Counterscreens check selectivity or assay interference.
For the molecule `CCN(CC)CCCOC(=O)C(O)(c1ccccc1)C1CCCCC1` (stereo not given), the membrane potential signal change was active: 11.6%.

As to `CN(C)CCOC(=O)C(O)(c1ccccc1)C1CCCCC1` (stereo not given), the membrane potential signal change was active: 3.81%. On the same count and under the same terms, in the case of `CN(C)CCOC(=O)C(O)(c1ccccc1)C1CCCC1` (stereo not given) it was active: 1.4%.

Take `CCOC(=O)c1ccc(NP(C)(=O)Oc2ccc(Cl)cc2)cc1` (stereo not given): the outcome was inactive.

As to `O=C(OCCCN1CCCC1)C(O)(c1ccccc1)C1CCCCC1` (stereo not given), the membrane potential signal change was active: 13.2%.
